Patent US20250082931A1, “Treating Gastric Cancer Using TTFields Combined with XELOX, FOLFOX or the Individual Constituents Thereof” (Novocure GmbH, priority 2019, published 2025)

Assays:
AGS cells [1] = test: Cytotoxic effect by cell count after 72 h, with and without TTFields; conditions: Two-way ANOVA P<0.001
KATO III cells [2] = test: Overall effect (cytotoxic effect x clonogenic effect); conditions: for overall effect (colonies count multiplying the cytotoxic effect): KATO III, 72 h
KATO III cells [3] = test: Cytotoxic effect by cell count after 72 h, with and without TTFields; conditions: Two-way ANOVA
AGS cells [4] = test: Overall effect (cytotoxic effect x clonogenic effect); conditions: 72 h

## O=C1[O][Pt]2([NH][C@@H]3CCCC[C@H]3[NH]2)[O]C1=O [Oxaliplatin]
AGS cells [1]
  cytotoxic effect of drug + TTFields compared to drug alone: significantly higher
KATO III cells [2]; 50 nM, + TTFields 150 kHz 1.6 V/cm
  overall effect (colonies count multiplying the cytotoxic effect): 28 % from control
KATO III cells [2]; 50 nM, no TTFields
  overall effect (colonies count multiplying the cytotoxic effect): 75 % from control
KATO III cells [2]; 100 nM, + TTFields 150 kHz 1.6 V/cm
  overall effect (colonies count multiplying the cytotoxic effect): 30 % from control
KATO III cells [2]; 100 nM, no TTFields
  overall effect (colonies count multiplying the cytotoxic effect): 65 % from control
KATO III cells [2]; 200 nM, + TTFields 150 kHz 1.6 V/cm
  overall effect (colonies count multiplying the cytotoxic effect): 16 % from control
KATO III cells [2]; 200 nM, no TTFields
  overall effect (colonies count multiplying the cytotoxic effect): 52 % from control
KATO III cells [2]; 400 nM, + TTFields 150 kHz 1.6 V/cm
  overall effect (colonies count multiplying the cytotoxic effect): 6 % from control
KATO III cells [2]; 400 nM, no TTFields
  overall effect (colonies count multiplying the cytotoxic effect): 13 % from control
KATO III cells [2]; chemotherapy alone, without TTFields, 72 h treatment, oxaliplatin 50 nM, 5-FU 1.5 uM, leucovorin 5 uM, FOLFOX = mix of all 3
  Mean of colonies count multiplying the cytotoxic effect to determine overall effect (% from control), Chemotherapy: 61 % from control
KATO III cells [2]; chemotherapy with TTFields for 72 h, oxaliplatin 50 nM, 5-FU 1.5 uM, leucovorin 5 uM, FOLFOX = mix of all 3
  Mean of colonies count multiplying the cytotoxic effect to determine overall effect (% from control), TTFields + Chemotherapy: 17 % from control
KATO III cells [3]
  cytotoxic effect of drug + TTFields compared to drug alone: significantly higher
AGS cells [4]; 25 nM, + TTFields 150 kHz 1.0 V/cm
  overall effect (colonies count multiplying the cytotoxic effect): 41 % from control
AGS cells [4]; 25 nM, no TTFields
  overall effect (colonies count multiplying the cytotoxic effect): 78 % from control
AGS cells [4]; 50 nM, + TTFields 150 kHz 1.0 V/cm
  overall effect (colonies count multiplying the cytotoxic effect): 34 % from control
AGS cells [4]; 50 nM, no TTFields
  overall effect (colonies count multiplying the cytotoxic effect): 73 % from control
AGS cells [4]; 100 nM, + TTFields 150 kHz 1.0 V/cm
  overall effect (colonies count multiplying the cytotoxic effect): 26 % from control
AGS cells [4]; 100 nM, no TTFields
  overall effect (colonies count multiplying the cytotoxic effect): 63 % from control
AGS cells [4]; 200 nM, + TTFields 150 kHz 1.0 V/cm
  overall effect (colonies count multiplying the cytotoxic effect): 11 % from control
AGS cells [4]; 200 nM, no TTFields
  overall effect (colonies count multiplying the cytotoxic effect): 35 % from control
AGS cells [4]; 400 nM, + TTFields 150 kHz 1.0 V/cm
  overall effect (colonies count multiplying the cytotoxic effect): 3 % from control
AGS cells [4]; 400 nM, no TTFields
  overall effect (colonies count multiplying the cytotoxic effect): 6 % from control
AGS cells [4]; FOLFOX experiment, 50 nM, + TTFields 150 kHz 1.0 V/cm
  overall effect (colonies count multiplying the cytotoxic effect): 29 % from control
AGS cells [4]; FOLFOX experiment, 50 nM, no TTFields
  overall effect (colonies count multiplying the cytotoxic effect): 68 % from control
